Reference: patent US20240335539A1, “MODULATION OF BCL-2 TO ENHANCE CHIMERIC ANTIGEN RECEPTOR CANCER IMMUNOTHERAPY EFFICACY” (The Trustees of the University of Pennsylvania, priority 2021, published 2024)

Test system: CART19-BCL2(WT)-tEGFR
Experiment: Depletion of tEGFR-expressing CART cells by anti-EGFR antibody, 24h
Format: cell-based, human
Settings: vs isotype control
From the text: FIGS. 26A-26H illustrate the finding that increased BCL-2 expression in T cells from CART apheretic products is associated with positive clinical outcomes in lymphoma patients at long term. FIG. 26A is a schematic description of the approach taken to investigate the relationship between the level of BCL-2 and CART's clinical response. RNA was extracted from T cells from apheretic products of 38 lymphoma patients who received CART19 immunotherapy (CTL019, i.e., tisagenleucleucel) in the clinical trial (NCT02030834). Next, BCL-2 mRNA expression was quantified via the nCounter analysis system (NanoString Technologies, Inc, Seattle, WA). FIG. 26B is a volcano plot showing differential gene expression in T cells based on best overall response (CR or NR). […] EGFR: Epidermal growth factor receptor.
Nevertheless, to further investigate the safety profile of this approach, whether CART19-BCL-2(WT) cells are still sensitive to conventional cytotoxic drugs such as chemotherapy (e.g., doxorubicin) was assessed. […] Furthermore, to enhance the safety profile of CART19-BCL-2(WT) cells, a CART suicide system (Paszkiewicz, et al., The Journal of clinical investigation 2016; 126(11):4262-72) was employed by expressing truncated EGFR into CART19-BCL-2(WT). Whether anti-EGFR antibodies can mediate antibody-dependent cellular cytotoxicity, thereby eradicating CART19-BCL-2(WT), was tested.

anti-EGFR antibodies: anti-EGFR antibody (Cetuximab) used to deplete tEGFR-expressing CART cells
Elimination of BCL-2-expressing CART cells via truncated EGFR: successfully eliminated
